Experimental data taken from patent US20050095240A1, “NaCT as a target for lifespan expansion and weight reduction” (Medical College of Georgia Research, priority 2002, published 2005).

Protein sequences, listed by entry. Tags and fused reporters are not part of them. Lines headed by an entry give the natural chain unless they say otherwise; changes in a name come on top.
UniProt Q86YT5: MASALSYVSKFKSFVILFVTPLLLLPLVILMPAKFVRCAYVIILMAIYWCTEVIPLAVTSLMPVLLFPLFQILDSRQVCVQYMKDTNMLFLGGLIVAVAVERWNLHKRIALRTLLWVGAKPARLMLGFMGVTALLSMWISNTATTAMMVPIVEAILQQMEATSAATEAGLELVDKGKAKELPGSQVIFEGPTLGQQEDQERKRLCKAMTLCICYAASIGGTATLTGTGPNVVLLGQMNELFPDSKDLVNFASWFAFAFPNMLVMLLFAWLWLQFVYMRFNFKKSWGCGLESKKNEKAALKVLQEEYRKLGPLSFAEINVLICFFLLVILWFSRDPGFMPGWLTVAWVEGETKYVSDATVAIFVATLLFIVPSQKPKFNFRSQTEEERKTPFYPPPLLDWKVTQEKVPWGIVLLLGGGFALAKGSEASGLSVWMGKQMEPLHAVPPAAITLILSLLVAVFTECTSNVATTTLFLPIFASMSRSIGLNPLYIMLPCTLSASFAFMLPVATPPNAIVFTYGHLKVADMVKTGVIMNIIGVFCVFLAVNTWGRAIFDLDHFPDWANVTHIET

How the values were obtained:
Type in all cases: cell-based
human NaCT = human NaCT (Homo sapiens, UniProt Q86YT5); assay: Uptake via human NaCT expressed in HRPE cells
mouse NaCT = target: T1, mouse NaCT (Mus musculus, UniProt Q67BT3); assay: Transport via mouse NaCT expressed in HRPE cells
T1 sequence (Q67BT3 1-572): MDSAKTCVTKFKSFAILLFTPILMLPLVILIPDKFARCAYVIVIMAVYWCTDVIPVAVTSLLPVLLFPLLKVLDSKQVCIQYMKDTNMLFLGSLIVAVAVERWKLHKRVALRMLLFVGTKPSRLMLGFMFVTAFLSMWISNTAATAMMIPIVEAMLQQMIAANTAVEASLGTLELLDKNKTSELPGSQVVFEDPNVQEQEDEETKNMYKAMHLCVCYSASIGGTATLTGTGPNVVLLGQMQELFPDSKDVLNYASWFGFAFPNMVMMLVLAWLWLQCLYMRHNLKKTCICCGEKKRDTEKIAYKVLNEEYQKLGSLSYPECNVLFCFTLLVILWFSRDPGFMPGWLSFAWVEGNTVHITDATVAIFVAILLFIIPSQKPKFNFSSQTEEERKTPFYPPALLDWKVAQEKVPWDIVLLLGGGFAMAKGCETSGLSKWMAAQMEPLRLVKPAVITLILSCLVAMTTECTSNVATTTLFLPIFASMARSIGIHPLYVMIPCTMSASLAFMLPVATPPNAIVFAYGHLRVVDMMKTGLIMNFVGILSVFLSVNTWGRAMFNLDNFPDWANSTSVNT

zebrafish NaCT = target: T2, zebrafish NaCT (Danio rerio, UniProt A0A2R8QQN0, K78Q); assay: Citrate uptake via zebrafish NaCT expressed in HRPE cells
T2 sequence (A0A2R8QQN0 2-582 K78Q): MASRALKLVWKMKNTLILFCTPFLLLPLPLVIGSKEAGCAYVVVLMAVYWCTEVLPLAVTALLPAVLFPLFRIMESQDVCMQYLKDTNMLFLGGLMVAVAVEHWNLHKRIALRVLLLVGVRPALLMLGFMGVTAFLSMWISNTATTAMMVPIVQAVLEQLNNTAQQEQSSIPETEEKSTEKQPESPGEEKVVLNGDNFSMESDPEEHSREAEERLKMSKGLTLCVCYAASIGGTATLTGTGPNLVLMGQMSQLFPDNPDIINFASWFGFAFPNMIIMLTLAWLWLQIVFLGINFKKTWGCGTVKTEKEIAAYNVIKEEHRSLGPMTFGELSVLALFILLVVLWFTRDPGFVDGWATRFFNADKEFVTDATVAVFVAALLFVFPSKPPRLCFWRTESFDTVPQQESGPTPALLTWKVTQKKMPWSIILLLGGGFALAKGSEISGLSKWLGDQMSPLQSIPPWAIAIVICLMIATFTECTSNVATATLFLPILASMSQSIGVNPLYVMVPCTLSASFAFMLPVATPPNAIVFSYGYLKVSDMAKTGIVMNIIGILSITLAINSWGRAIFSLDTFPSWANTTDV

Row | SMILES | [^14C]-Citrate Uptake, % (human NaCT) | [^3H]-Succinate transport, % (mouse NaCT) | [^14C]-Citrate transport, % (mouse NaCT) | IC50 (zebrafish NaCT)
1 | O=C(O)CC(C(=O)O)C(O)C(=O)O (stereo not shown) [Isocitrate] | 125% | 86% | 69% | 
2 | O=C(O)/C=C(/CC(=O)O)C(=O)O [cis-Aconitate, cis-aconitate] |  |  |  | 624 ± 45 µM
